Assay results as given in PubChem BioAssay AID2803 (The Scripps Research Institute Molecular Screening Center, 2010).
Only a part is listed here, and it is no random draw. The source made the active and inactive calls. Cut-off read from the data, not from the text of the source: active = inhibition above about 43%; inactive = the rest.

The chains behind the UniProt entries cited, without tags or fusion partners.
UniProt Q4J6C6, whole entry: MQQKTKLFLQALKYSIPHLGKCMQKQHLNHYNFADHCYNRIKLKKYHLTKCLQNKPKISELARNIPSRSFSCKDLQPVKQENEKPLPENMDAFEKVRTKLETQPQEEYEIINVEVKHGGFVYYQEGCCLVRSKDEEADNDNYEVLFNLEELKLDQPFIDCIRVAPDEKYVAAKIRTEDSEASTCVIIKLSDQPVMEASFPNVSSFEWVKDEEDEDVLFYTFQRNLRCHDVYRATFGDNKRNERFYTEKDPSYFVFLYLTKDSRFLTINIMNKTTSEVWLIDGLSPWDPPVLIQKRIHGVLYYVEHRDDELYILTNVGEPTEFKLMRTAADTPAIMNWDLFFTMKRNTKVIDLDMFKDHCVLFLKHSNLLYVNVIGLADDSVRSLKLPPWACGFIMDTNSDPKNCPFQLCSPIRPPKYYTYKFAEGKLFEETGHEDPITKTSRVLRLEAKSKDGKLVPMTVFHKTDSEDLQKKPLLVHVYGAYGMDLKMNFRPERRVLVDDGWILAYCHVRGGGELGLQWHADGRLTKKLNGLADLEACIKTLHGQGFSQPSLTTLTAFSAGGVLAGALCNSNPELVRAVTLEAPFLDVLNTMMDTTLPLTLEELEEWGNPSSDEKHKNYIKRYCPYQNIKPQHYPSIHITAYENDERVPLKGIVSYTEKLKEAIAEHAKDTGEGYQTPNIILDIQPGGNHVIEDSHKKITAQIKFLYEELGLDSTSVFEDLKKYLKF

Target: Prolyl endopeptidase-like (Homo sapiens) (UniProt Q4J6C6)
Experiment: human PREPL enzyme inhibitors, confirmation, biochemical, fluorescence polarization (AID 2803);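 note: 0% = protein with DMSO and 100% = wells lacking protein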
Settings: recombinant PREPL, fluorescence polarization activity probe; at 5.96 µM; hits give high values

Row | Structure (SMILES) | inhibition
1 | CC1=NCCc2c1[nH]c1ccccc21.O=[N+]([O-])c1cc([N+](=O)[O-])c(O)c([N+](=O)[O-])c1 | inactive: 12.4%
